## Antibody variant affinities, Ab-14 heavy chain, assay 1

Antigen: PDVDLGDISGINAS, a 14-residue peptide of the SARS-CoV-2 spike HR2 region.

Parent scFv Ab-14: VH joined to VL by three GGGGS repeats. Changes lie in the heavy chain CDRs alone.
VH: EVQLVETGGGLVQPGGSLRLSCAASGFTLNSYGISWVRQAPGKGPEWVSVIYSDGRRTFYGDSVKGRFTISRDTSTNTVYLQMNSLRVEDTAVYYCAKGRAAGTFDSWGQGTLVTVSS
VL: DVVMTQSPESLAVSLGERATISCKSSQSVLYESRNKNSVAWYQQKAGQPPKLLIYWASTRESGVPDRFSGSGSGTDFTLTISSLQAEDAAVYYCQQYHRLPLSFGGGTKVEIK

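The parent was found by panning a naive human phage display library on the peptide. AAYL49 was designed without a model: most single CDR substitutions and a random sample of double and triple ones. The scFvs were displayed on barcoded MATa yeast, the peptide on MATalpha yeast. Binding brings cells together so that they mate, and sequencing counts the barcode pairs among the diploids. Each replicate has its own calibration line, from reference interactions of the BCL2 family. There are three technical replicates.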

Substitutions are numbered in sequence along the VH above, starting at 1 (not Kabat).
Scale: log10 of Kd in nM, estimated from mating counts; low values are strong binders.
The mean shown is taken over the replicates in which the pair was detected.
"nd" means that the variant was in the library but no mating with the target was seen in that replicate; the authors take this as a sign of poor binding, and no number exists.

| # | changes | replicates, log10 nM | mean, log10 nM | empty controls |
|---|---|---|---|---|
| 1 | K65H/T104M | 3.50 1.94 nd | 2.72 | 0/9 |
| 2 | L29N/G99C | nd nd nd | nd | 0/9 |
| 3 | I51K/S63W/D106R | nd 4.06 nd | 4.06 | 6/9 (3.50) |
| 4 | L29Q/S31N/Y52R | 5.46 3.36 nd | 4.41 | 0/9 |
| 5 | L29H/G33V/K65L | nd nd 4.81 | 4.81 | 2/9 (4.50) |
| 6 | T28P/N30I/G55A | 4.38 3.89 4.43 | 4.23 | 4/9 (4.54) |
| 7 | N30G/R57H/R100M | 4.20 3.48 2.25 | 3.31 | 2/9 (4.12) |
| 8 | F27K/G103V | 2.52 2.02 2.52 | 2.35 | 0/9 |
| 9 | G33W/D62W | nd nd nd | nd | 2/9 (3.68) |
| 10 | V50Q/R56S/D62K | nd nd 4.33 | 4.33 | 0/9 |
| 11 | T58E/G61H/G103R | 2.39 2.35 2.08 | 2.27 | 0/9 |
| 12 | S31R/V50C/R56W | nd nd nd | nd | 2/9 (3.75) |
| 13 | L29I/Y52M/S53G | nd 2.86 nd | 2.86 | 1/9 (3.41) |
| 14 | I51V/G61A/G99S | 5.40 nd 4.87 | 5.13 | 1/9 (3.10) |
| 15 | Y32W/D54N/S63N | nd nd nd | nd | 0/9 |
| 16 | D62P/G99S | 1.17 1.35 1.98 | 1.50 | 0/9 |
| 17 | G33R/S63F/D106S | nd nd nd | nd | 0/9 |
| 18 | S35A/G55P/G99L | nd nd nd | nd | 1/9 (2.15) |
| 19 | G33K/V50H/S53P | 3.27 nd nd | 3.27 | 2/9 (3.35) |
| 20 | D54W/G61V/G99E | nd nd nd | nd | 1/9 (4.79) |
| 21 | S31R/S53C/G61L | nd nd 4.79 | 4.79 | 3/9 (3.97) |
| 22 | Y32V/Y52M/R100V | nd nd nd | nd | 4/9 (3.79) |
| 23 | I34T/G55N | nd nd nd | nd | 0/9 |
| 24 | G26Q/T28C/Y52I | nd 4.83 4.69 | 4.76 | 2/9 (4.42) |
| 25 | G55K/T58I/G99H | nd nd nd | nd | 4/9 (4.02) |
| 26 | G26E/S35F/T58S | 4.01 nd nd | 4.01 | 3/9 (5.13) |
| 27 | G26T/Y32V/A102G | nd nd nd | nd | 0/9 |
| 28 | Y52L/Y60S | 4.72 nd nd | 4.72 | 4/9 (4.21) |
| 29 | T58A/Y60C/S107Y | nd nd nd | nd | 0/9 |
| 30 | V50I/G55W/G61A | nd nd nd | nd | 2/9 (3.14) |
| 31 | G26S/D106C | 1.18 1.54 1.41 | 1.37 | 1/9 (5.17) |
| 32 | G26Y/D62K/G99F | nd nd nd | nd | 0/9 |
| 33 | R56M/F59V/G99S | nd nd nd | nd | 2/9 (3.93) |
| 34 | F27R/S53K/D106T | nd 3.40 5.60 | 4.50 | 2/9 (3.59) |
| 35 | F27Q/G55Y/D106W | 3.34 2.79 nd | 3.06 | 1/9 (3.50) |

The first 4 entries again:

changes,"replicates, log10 nM","mean, log10 nM",empty controls
K65H/T104M,3.50 1.94 nd,2.72,0/9
L29N/G99C,nd nd nd,nd,0/9
I51K/S63W/D106R,nd 4.06 nd,4.06,6/9 (3.50)
L29Q/S31N/Y52R,5.46 3.36 nd,4.41,0/9

In this assay the parent's reference entry averaged 0.65; its copy inside this library read 4.11 (one replicate of three).
Nonspecific signal, from three strains lacking the peptide, appeared in 15% of pairings of library AAYL49, centred on 4.06 (5% of these signals below 2.83); values are not corrected for it. For each scFv, signals with the empty controls are counted beside the result, with their mean in brackets.

Reference: Engelhart et al. 2022, doi:10.1038/s41597-022-01779-4. File: FLAb, binding data.